Laboratory results: patent US10927076B2, “HSP90B N-terminal isoform-selective inhibitors” (priority 2017, dated 2021)

Protein sequences, listed by entry. Tags and fused reporters are not part of them.
UniProt P08238, whole entry: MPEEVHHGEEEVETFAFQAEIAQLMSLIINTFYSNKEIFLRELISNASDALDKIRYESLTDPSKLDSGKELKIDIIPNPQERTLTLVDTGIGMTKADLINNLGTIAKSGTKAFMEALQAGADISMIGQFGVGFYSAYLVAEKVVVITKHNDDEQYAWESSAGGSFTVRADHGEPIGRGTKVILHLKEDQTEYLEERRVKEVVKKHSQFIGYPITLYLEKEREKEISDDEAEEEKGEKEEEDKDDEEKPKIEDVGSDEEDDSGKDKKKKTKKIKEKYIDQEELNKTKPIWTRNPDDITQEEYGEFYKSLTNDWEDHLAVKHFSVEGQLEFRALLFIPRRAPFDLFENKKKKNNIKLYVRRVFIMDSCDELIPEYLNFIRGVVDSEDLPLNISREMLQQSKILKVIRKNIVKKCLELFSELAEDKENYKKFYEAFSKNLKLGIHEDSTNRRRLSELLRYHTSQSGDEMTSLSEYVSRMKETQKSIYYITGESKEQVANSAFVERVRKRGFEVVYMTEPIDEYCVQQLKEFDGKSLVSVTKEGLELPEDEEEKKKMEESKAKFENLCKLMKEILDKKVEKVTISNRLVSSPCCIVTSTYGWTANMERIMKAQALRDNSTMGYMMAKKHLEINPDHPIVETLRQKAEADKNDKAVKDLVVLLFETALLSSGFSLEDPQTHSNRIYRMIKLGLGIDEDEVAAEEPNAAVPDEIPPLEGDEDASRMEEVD

Key:
Hsp90β = Hsp90β (Homo sapiens (Human), UniProt P08238); experiment: Fluorescence polarization assay (FITC-GDA tracer displacement); type: binding; details: for Kd: fluorescence polarization
HEK-293 cells = experiment: cells; details: Homo sapiens, HEK293, read-out: IC50, HEK-293

SMILES | Kd (Hsp90β) [nM] | IC50 (HEK-293 cells) [nM] | selectivity for Hsp90β over Hsp90α (Hsp90β) [fold]
CC(C)c1cc(C(=O)N2Cc3ccccc3C2)c(O)cc1C=O [CHO] | 240 ± 80 |  | 
CC(C)c1cc(C(=O)N2Cc3ccccc3C2)c(O)c2cnoc12 [KUNB31a, (4-Hydroxy-7-isopropylbenzo[d]isoxazol-5-yl)(isoindolin-2-yl)methanone] |  | > 100000 | 
CC(C)c1cc(C(=O)N2Cc3ccccc3C2)c(O)cc1C=O [Compound 4, 5-Hydroxy-4-(isoindoline-2-carbonyl)-2-isopropylbenzaldehyde] | 310 |  | ~4
